Measured values: ChEMBL document CHEMBL3526103, “Prediction of in vivo hepatic clearance and half-life of drug candidates in human using chimeric mice with humanized liver” (Drug Metab Dispos, 2012)

Experiment: clinical
Details: human, blood and plasma, iv

blood plasma ratio: 0.55
Compound: O=C(O)Cc1ccccc1Nc1c(Cl)cccc1Cl [DICLOFENAC]
